For the assay, the target named is TβRII-Fc (TβRII extracellular domain fused to human IgG1 Fc) (human) (UniProt P37173). Kind of assay: SPR; Biacore 3000, CM5 chip with anti-human Fc mixed with anti-mouse Fc antibodies; TβRII-SE/Fc or TβRII-Fc captured to 100–140 RU; TGF-β1, -β2 or -β3 injected at 0.4 to 30 nM, 50 μl/min, association 90 s, dissociation 300 s (900 s for slow rates); 0.1% surfactant; double referencing; 1:1 binding model; stoichiometry from Rmax and mass ratios.

Chains of the proteins cited; added tags and fusions are not shown. Residues count along the entry.
UniProt P37173, 23-166: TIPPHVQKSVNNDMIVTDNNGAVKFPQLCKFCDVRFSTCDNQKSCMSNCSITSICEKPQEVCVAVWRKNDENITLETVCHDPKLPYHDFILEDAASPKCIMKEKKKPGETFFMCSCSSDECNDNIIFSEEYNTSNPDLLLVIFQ

With TGF-β3 (ligand), the stoichiometry N (TGF-β dimer per bivalent Fc ligand) turned out to be 1.

The values are drawn from article PMC8461249.
